Measurements taken from ChEMBL document CHEMBL4325887, “Lipophilic Permeability Efficiency Reconciles the Opposing Roles of Lipophilicity in Membrane Permeability and Aqueous Solubility” (J Med Chem, 2018).

Experiment: Apparent permeability of compound in pH 7.4 PBS after 16 hrs by PAMPA assay
Format: ADME
In the case of `CC[C@H](C)[C@@H]1NC(=O)[C@H](Cc2ccc(O)cc2)N(C)C(=O)[C@H](Cc2ccccc2)NC(=O)CN(C)C(=O)[C@@H]2CCCN2C(=O)[C@@H](Cc2ccccc2)N(C)C(=O)[C@H](C)NC1=O`, the Papp at 16 h is reported as 2.2 ×10⁻⁶ cm/s.
With `CC[C@H](C)[C@@H]1NC(=O)[C@H](Cc2ccc(O)cc2)N(C)C(=O)[C@H](C)NC(=O)CN(C)C(=O)[C@@H]2CCCN2C(=O)[C@@H](Cc2ccccc2)N(C)C(=O)[C@H](CC(C)C)NC1=O` the Papp at 16 h was 1.2 ×10⁻⁶ cm/s.
Molecule `CC[C@H](C)[C@@H]1NC(=O)[C@H](Cc2ccc(O)cc2)N(C)C(=O)[C@H](Cc2ccccc2)NC(=O)CN(C)C(=O)[C@@H]2CCCN2C(=O)[C@@H](Cc2ccccc2)N(C)C(=O)[C@H](CC(C)C)NC1=O` [CORDYHEPTAPEPTIDE A] has a Papp at 16 h of 1.2 ×10⁻⁶ cm/s.
